In PMC3782865 (Journal of medicinal chemistry, 2013):
pIC50: −log10 of the molar value.

By UniProt entry, the sequences of proteins in these tests, tags left out. Where a name states a change or a piece, a line headed by the entry shows the natural chain unless it says otherwise.
UniProt P28072: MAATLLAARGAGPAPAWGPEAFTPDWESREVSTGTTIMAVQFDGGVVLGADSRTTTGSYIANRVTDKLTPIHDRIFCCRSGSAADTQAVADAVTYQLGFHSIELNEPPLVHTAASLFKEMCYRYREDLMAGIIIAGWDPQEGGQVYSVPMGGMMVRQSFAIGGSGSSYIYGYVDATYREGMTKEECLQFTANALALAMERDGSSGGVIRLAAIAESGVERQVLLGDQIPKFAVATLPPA
UniProt Q99436: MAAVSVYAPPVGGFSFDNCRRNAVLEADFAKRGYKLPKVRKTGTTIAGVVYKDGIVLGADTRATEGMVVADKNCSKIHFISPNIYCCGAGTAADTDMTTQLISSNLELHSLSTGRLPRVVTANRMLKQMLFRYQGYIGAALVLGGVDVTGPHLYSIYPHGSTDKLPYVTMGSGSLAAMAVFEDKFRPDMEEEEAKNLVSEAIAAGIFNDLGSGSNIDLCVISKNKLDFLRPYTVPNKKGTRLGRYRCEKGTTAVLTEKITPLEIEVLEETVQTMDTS

Molecular target: proteasome caspase-like (Casp-L) sites in HEK-293T cells (Homo sapiens, UniProt P28072+Q99436)
Format: cell-based

pIC50: < 4.30
SMILES: CC(C)C[C@H](NC(=O)[C@H](Cc1ccncc1)NC(=O)[C@H](Cc1ccccc1)N=[N+]=[N-])C(=O)N[C@H](/C=C/S(C)(=O)=O)Cc1ccc(CN)cc1 [compound 10]
